Laboratory results: patent publication US11484525B2 (priority 2015, dated 2022)

Test system: μOR
Test: Radioligand competition binding vs 3H-diprenorphine at μOR
Details: read-out: Kd of radioligand; μOR containing Sf9 insect cell membranes

^3H-diprenorphine
Kd: 0.4 nM

Only a part of the results on these compounds is given; other tests are left out.
